# ChEMBL document CHEMBL1158541, “Water-soluble PDE4 inhibitors for the treatment of dry eye” (Bioorg Med Chem Lett, 2010)
# The chains behind the UniProt entries cited, without tags or fusion partners. Where a name states a change or a piece, a line headed by the entry shows the natural chain unless it says otherwise.
# UniProt Q07343: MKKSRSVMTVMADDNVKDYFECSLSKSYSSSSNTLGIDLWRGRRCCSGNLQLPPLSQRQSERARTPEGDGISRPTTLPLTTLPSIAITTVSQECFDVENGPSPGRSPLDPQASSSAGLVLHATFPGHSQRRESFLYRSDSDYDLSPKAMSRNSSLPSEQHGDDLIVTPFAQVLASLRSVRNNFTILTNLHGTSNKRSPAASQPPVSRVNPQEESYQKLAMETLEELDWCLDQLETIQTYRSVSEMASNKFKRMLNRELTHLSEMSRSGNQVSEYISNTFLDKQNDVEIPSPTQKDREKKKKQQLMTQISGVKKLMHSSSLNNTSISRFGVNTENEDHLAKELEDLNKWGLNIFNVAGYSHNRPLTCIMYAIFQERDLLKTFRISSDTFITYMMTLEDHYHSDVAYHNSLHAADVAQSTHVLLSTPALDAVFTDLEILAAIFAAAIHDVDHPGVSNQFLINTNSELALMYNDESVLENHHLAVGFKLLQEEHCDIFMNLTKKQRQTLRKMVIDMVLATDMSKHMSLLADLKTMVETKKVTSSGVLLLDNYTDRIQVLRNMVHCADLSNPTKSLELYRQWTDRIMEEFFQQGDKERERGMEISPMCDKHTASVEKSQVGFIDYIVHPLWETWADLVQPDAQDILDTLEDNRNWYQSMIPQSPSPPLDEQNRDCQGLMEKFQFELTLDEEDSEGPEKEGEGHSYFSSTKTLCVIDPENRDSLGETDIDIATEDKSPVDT
# Target: 3',5'-cyclic-AMP phosphodiesterase 4B (Homo sapiens, UniProt Q07343)
# Test: Inhibition of human His6-tagged PDE4B (152-487) expressed in Escherichia coli BL21 (DE3) after 1 hr
structure (smiles),measurement,value
COc1ccc2c(Nc3c(Cl)cncc3Cl)cc(=O)oc2c1OC1CCCC1,IC50,5 nM
